{"source": "patent US11366102B2", "about": "“Spectographic metabolite-signature for identifying a subject's susceptibility to drugs” (Olaris, Inc., priority 2018, dated 2022)", "key": {"[1]": {"system": "HER2+ metastatic breast cancer", "experiment": "Progression free survival of HER2+ mBC patients treated with trastuzumab and chemotherapy", "assay_type": "in vivo, human"}, "[2]": {"system": "HER2+ metastatic breast cancer", "details": "after about 1 year of PFS; cited from earlier work"}}, "data": [{"substance": "Trastuzumab", "values": [{"measurement": "Median PFS", "setting": "[1]; 23 HER2+ mBC patients treated with trastuzumab and chemotherapy", "value": 301, "unit": "days"}, {"measurement": "Number of Non-responders (NR), early progressors", "setting": "[1]; PFS<301 days, all 23 patients", "value": 13}, {"measurement": "Number of Responders (R), late progressors", "setting": "[1]; PFS≥301 days, all 23 patients", "value": 10}, {"measurement": "Number of R patients, first line therapy", "setting": "[1]; sixteen patients who received trastuzumab as part of first line therapy", "value": 7, "unit": "patients"}, {"measurement": "Patients who stop responding to therapy", "setting": "[2]", "value": "approximately 75%"}]}]}
